## Apparent affinities of Ab-95 variants for a coronavirus HR2 peptide

The target is the same throughout: PDVDLGDISGINAS, from the HR2 region of SARS-CoV-2 spike.

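Phage display of a naive human antibody library on the peptide gave the parent. Library AAYL52 holds single substitutions and randomly drawn double and triple substitutions in the CDRs. Affinity was read by AlphaSeq, a pooled yeast mating assay with surface-displayed partners. Mating (16 h, 30 °C) was followed by selection of diploids and sequencing of their barcodes. Scores were corrected for input abundance and mapped to Kd with protein pairs of known affinity run in the same pool. Mating was done three times.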

Ab-95 is the parent antibody, in scFv form: VH, then a (GGGGS)3 linker, then VL. The heavy chain is unchanged in all variants.
VH: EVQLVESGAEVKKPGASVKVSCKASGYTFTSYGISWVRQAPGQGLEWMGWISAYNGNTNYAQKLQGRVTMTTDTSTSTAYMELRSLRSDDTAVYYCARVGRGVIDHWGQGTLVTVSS
VL: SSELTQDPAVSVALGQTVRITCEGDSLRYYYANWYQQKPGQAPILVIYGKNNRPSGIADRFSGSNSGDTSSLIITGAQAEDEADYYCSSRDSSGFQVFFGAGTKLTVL

Substitutions are numbered in sequence along the VL above, starting at 1 (not Kabat).
This list gathers variants with a substitution at S55 (VL, numbered from residue 1).
The Kd shown is the geometric mean over detected replicates; a lower Kd is a better binder.
"no signal" means that the variant was in the library but no mating with the target was seen in any replicate; the authors take this as a sign of poor binding, and no number exists.
Entries are sorted by rising average, undetected variants last.

With Y30Q/S55N/S92A the result was 2.4 nM (3 of 3 replicates; controls 4 of 9). Variant N52Q/P54S/S55D gave 24 nM (3 of 3 replicates; controls 3 of 9). For Y29G/S55P/F95K, the assay gave 39 nM (3 of 3 replicates; controls 2 of 9). With N52Q/S55E/S92A the result was 52 nM (3 of 3 replicates; controls 1 of 9). Variant E23D/S55N showed 120 nM (3 of 3 replicates; controls 1 of 9). For G24N/R28Q/S55M, the assay gave 140 nM (3 of 3 replicates; controls 0 of 9). Variant S55M/Q96Y gave 150 nM (3 of 3 replicates; controls 1 of 9). With S55Y the result was 180 nM (3 of 3 replicates; controls 3 of 9).

Variant S55Q/S93G gave 210 nM (3 of 3 replicates; controls 3 of 9). With S55V/Q96C the result was 240 nM (3 of 3 replicates; controls 3 of 9). With Y29H/S55D/S93L the result was 290 nM (3 of 3 replicates; controls 1 of 9). For K50D/S55G, the assay gave 340 nM (3 of 3 replicates; controls 1 of 9). For S55G/G94T/F98T, the assay gave 390 nM (3 of 3 replicates; controls 1 of 9). Variant S55G/S89E gave 400 nM (3 of 3 replicates; controls 2 of 9). With E23P/L27Q/S55Y the result was 420 nM (3 of 3 replicates; controls 4 of 9). For S26T/Y31T/S55D, the assay gave 460 nM (3 of 3 replicates; controls 5 of 9).

Variant D25S/S55N/G94M showed 460 nM (3 of 3 replicates; controls 6 of 9). Variant S55H/F95V gave 490 nM (3 of 3 replicates; controls 1 of 9). For D25E/Y29M/S55T, the assay gave 510 nM (3 of 3 replicates; controls 5 of 9). Variant Y29S/P54S/S55E showed 580 nM (3 of 3 replicates; controls 1 of 9). Variant K50G/S55K/G94W gave 770 nM (1 of 3 replicates; controls 4 of 9). Variant G49M/S55K gave 1.2 µM (2 of 3 replicates; controls 1 of 9). With R53E/S55T the result was 1.3 µM (3 of 3 replicates; controls 4 of 9). Variant E23D/P54C/S55M gave 1.3 µM (3 of 3 replicates; controls 2 of 9).

Variant N33S/S55D/S92Y showed 1.5 µM (3 of 3 replicates; controls 1 of 9). Variant G24R/D25L/S55Y gave 1.8 µM (3 of 3 replicates; controls 2 of 9). Variant N52L/S55Y/F95N showed 1.9 µM (2 of 3 replicates; controls 0 of 9). Variant R53D/P54Y/S55A showed 2.5 µM (3 of 3 replicates; controls 3 of 9). Variant A32Y/N51F/S55T gave 2.8 µM (2 of 3 replicates; controls 4 of 9). For S55C/S88P/D91R, the assay gave 2.9 µM (1 of 3 replicates; controls 3 of 9). With S26C/Y30P/S55H the result was 4.1 µM (2 of 3 replicates; controls 3 of 9). With D25W/G49F/S55N the result was 4.3 µM (2 of 3 replicates; controls 3 of 9).

With S26R/K50T/S55V the result was 5.5 µM (2 of 3 replicates; controls 3 of 9). With G24L/R53K/S55N the result was 6.1 µM (1 of 3 replicates; controls 1 of 9). For Y30C/N33G/S55A, the assay gave 7.3 µM (2 of 3 replicates; controls 1 of 9). With A32N/P54V/S55E the result was 7.5 µM (2 of 3 replicates; controls 3 of 9). Variant S26C/S55Q/F98V gave 8.7 µM (1 of 3 replicates; controls 0 of 9). Variant R53W/S55M/S89V showed 8.8 µM (2 of 3 replicates; controls 5 of 9). With L27W/A32E/S55V the result was 9.6 µM (2 of 3 replicates; controls 2 of 9). Variant N51F/S55P/V97C gave 13 µM (3 of 3 replicates; controls 7 of 9).

For S55A/S88H/F98A, the assay gave 19 µM (2 of 3 replicates; controls 3 of 9). Variant S26N/G49Y/S55K showed 23 µM (3 of 3 replicates; controls 4 of 9). Variant L27E/S55W/R90P gave 54 µM (2 of 3 replicates; controls 3 of 9). Variant E23C/R53Y/S55W gave 97 µM (2 of 3 replicates; controls 3 of 9). For S55D/S89R/Q96T, the assay gave no signal (0 of 3 replicates; controls 4 of 9). Variant N33D/G49E/S55A showed no signal (0 of 3 replicates; controls 5 of 9). With R28M/S55Y/D91F the result was no signal (0 of 3 replicates; controls 3 of 9). Variant E23V/S55M/R90F showed no signal (0 of 3 replicates; controls 1 of 9).

Variant S55Q/Q96I/V97H gave no signal (0 of 3 replicates; controls 0 of 9).

Top 7 of the variants detected in all replicates, tightest first:

For Y30Q/S55N/S92A, the assay gave 2.4 nM (3 of 3 replicates; controls 4 of 9).
For N52Q/P54S/S55D, the assay gave 24 nM (3 of 3 replicates; controls 3 of 9).
For Y29G/S55P/F95K, the assay gave 39 nM (3 of 3 replicates; controls 2 of 9).
For N52Q/S55E/S92A, the assay gave 52 nM (3 of 3 replicates; controls 1 of 9).
For E23D/S55N, the assay gave 120 nM (3 of 3 replicates; controls 1 of 9).
For G24N/R28Q/S55M, the assay gave 140 nM (3 of 3 replicates; controls 0 of 9).
For S55M/Q96Y, the assay gave 150 nM (3 of 3 replicates; controls 1 of 9).

Background: pairings of library AAYL52 with three empty control strains gave a value in 28% of cases (median 8.2 µM, 5th percentile 800 nM). Values in that range, when seen in few replicates, are hard to tell from nonspecific mating. Also given: how often the same scFv was detected with the empty control strains.
Parent in this assay: reference entry 200 nM, copy in this library 180 nM.

Reference: Engelhart et al. 2022, doi:10.1038/s41597-022-01779-4. File: FLAb, binding data.